Measurements from PubChem BioAssay AID1662 (Broad Institute, 2009).
This is a selection; strong and weak results do not stand in their true shares. Activity calls are given as the source filed them.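 The calls were made as follows: active = mean replicate score, as percent of positive control median, at least 50; inconclusive = mean below 50 but one replicate at or above 50; inactive = mean and every replicate below 50.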

Assay: S. pyogenes SKKanGAS growth inhibitors in kanamycin, primary screen, streptokinase expression inhibitor project, SKKanGAS strain, BacTiter-Glo luminescence (AID 1662);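 also: strain carries kanamycin resistance gene driven by streptokinase promoter and grows in 40 µg/ml kanamycin; loss of luminescence reflects streptokinase promoter inhibition or plain growth inhibition; 0% = median of DMSO wells and 100% = positive control at its reference dose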
Conditions: 6 h, at 7.5 µM, hits give high values

SMILES | inhibition
CN(C)C(=N)N=C(N)N | active: 71%
